From PubChem BioAssay AID1259398 (Fisher Drug Discovery Resource Center, 2018)
“And” between values parts separate entries of the source, which are not always exact repeats. Equal entries are not always repeated. Only a part is listed here, and it is no random draw. The source made the active and inactive calls. Cut-off read from the data, not from the text of the source: active = inhibition above about 40%; inactive = the rest.

The chains behind the UniProt entries cited, without tags or fusion partners.
UniProt Q8N884, whole entry: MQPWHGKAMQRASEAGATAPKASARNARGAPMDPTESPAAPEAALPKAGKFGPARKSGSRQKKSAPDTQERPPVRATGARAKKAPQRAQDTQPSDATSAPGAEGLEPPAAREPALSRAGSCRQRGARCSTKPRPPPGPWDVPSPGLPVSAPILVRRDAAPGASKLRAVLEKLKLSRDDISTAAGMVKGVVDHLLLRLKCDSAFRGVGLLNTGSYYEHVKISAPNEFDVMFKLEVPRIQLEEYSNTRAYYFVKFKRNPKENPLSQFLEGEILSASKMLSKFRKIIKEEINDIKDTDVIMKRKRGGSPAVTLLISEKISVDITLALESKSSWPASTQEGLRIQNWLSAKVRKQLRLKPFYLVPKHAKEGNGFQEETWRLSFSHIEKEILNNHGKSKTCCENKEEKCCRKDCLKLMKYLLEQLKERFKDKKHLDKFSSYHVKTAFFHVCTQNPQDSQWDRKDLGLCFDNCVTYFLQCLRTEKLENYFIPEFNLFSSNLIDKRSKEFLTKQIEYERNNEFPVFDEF

target: Cyclic GMP-AMP synthase (Homo sapiens) (UniProt Q8N884); experiment: Primary biochemical luminescence assay for human cyclic GMP-AMP synthase inhibitors (AID 1259398); settings: recombinant h-cGAS, ATP depletion, Kinase-Glo luminescence; at 12.5 µM; active compounds read high;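 note: 0% = vehicle reaction and 100% = reaction without DNA for no activity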

Structure (SMILES)	inhibition
CC(C)(C)c1ncc(C(=O)NCC2(N3CCOCC3)CCCCC2)c(=O)[nH]1	inactive: -12.3%
COc1ccc(N(C(=O)CC(C)C)C2CCNCC2)cc1	inactive: -4.23%
CCc1ccc(N(C(=O)c2cccc(C)c2)C2CCNCC2)cc1	inactive: -0.67%
Nc1cc(C(=O)NCC2(N3CCCC3)CCCCC2)[nH]n1	inactive: -5.41%
Cc1ccc(N(C(=O)c2ccco2)C2CCNCC2)cc1F	inactive: -5.24%
Cc1nc2ncc(C(=O)N(C)CC3(N4CCCCC4)CCCCC3)c(=O)n2[nH]1	inactive: 10.4%
O=c1[nH]c2ccccc2n1C1CCN(Cc2ccccn2)CC1	inactive: -5.54%
O=C(NCC1(N2CCCCC2)CCCCC1)c1ccc2c(c1)OCO2	inactive: -6.84%
Cc1cccc(N(C(=O)c2ccco2)C2CCN(C(=O)OC(C)(C)C)CC2)c1	inactive: -6.87%
O=C(NCC1(N2CCOCC2)CCCCC1)c1ccc(OCC(F)(F)F)nc1	inactive: 3.83%
COc1cccc(NC2CCN(Cc3ccncc3)CC2)c1	inactive: 2.62%
N#Cc1ccc(C(=O)CBr)cc1	inactive: -7.77%
O=c1[nH]c2ccccc2n1C1CCN(Cc2cccc(F)c2F)CC1	inactive: -12.2%
CCOC(OCC)P(=S)(OCC)OCC	inactive: -2.72%
O=C(N[C@@H]1CCCC[C@H]1N1CCOCC1)c1cccc(Br)c1	inactive: -1.94%
Cc1cc(=O)[nH]c(C(C)N2CCC(Nc3ccccc3)CC2)n1 (stereo not drawn)	inactive: -11.4% and inactive: -3.35%
Cc1nc(N)ncc1C(=O)NCC1(N2CCCC2)CCCCC1	inactive: 3.48%

Structure (SMILES)	inhibition
O=C(NCC1(N2CCOCC2)CCCCC1)c1ccc2c3c(cccc13)CC2	inactive: -2.46%
Cn1cc(C(=O)NCC2(N3CCCC3)CCCCC2)c(=O)[nH]c1=O	inactive: -18.1%
CCn1ccc(C(=O)N(C)CC2(N3CCCCC3)CCCCC2)cc1=O	inactive: -21.2%
O=C(NCC1(N2CCCCC2)CCCCC1)c1cc2c(s1)CCC2	inactive: -3.47%
COCC(=O)N(c1cccc(C)c1)C1CCNCC1	inactive: -3.73%
CN(CC1(N2CCCCC2)CCCCC1)C(=O)c1cnc2c(c1)nnn2C	inactive: -6.75%
COc1cc(NC2CCNCC2)cc(OC)c1	inactive: -19.8%
COc1cccc(N(C(=O)c2cccc(Cl)c2)C2CCNCC2)c1	inactive: -1.92%
O=C(NCC1(N2CCCCC2)CCCCC1)c1cn2ccccc2n1	inactive: -15.4%
CC(C)(C)OC(=O)N1CCC(Nc2ccccc2)(C(=O)N2CCC2)CC1	inactive: -5.83%
O=C(NCC1(N2CCOCC2)CCCCC1)c1ccc(Br)o1	inactive: -7.42%
CN(C)C1(CNC(=O)c2ccccn2)CCCCC1	inactive: -11%
Cc1ccc(C(C)CCN(CCCl)CCCl)cc1 (stereo not drawn)	inactive: -3.11%
Cc1nc([N+](=O)[O-])cn1CCC(=O)N[C@@H]1CCCC[C@H]1N1CCOCC1	inactive: -9.12%
O=C(NCC1(N2CCCCC2)CCCCC1)c1cccs1	inactive: -10.6%
c1ccc(NC2CCN(CCc3ccncc3)CC2)cc1	inactive: -7.27%
